According to patent US10745715B2, “Method and means for purifying retroviral vectors” (UCL BUSINESS PLC, priority 2014, dated 2020):

Legend:
[1] = system: K562 cells; assay: Sorting of K562 cells expressing flankedccstreptag, RQR8, GST or H6 tags with their respective beads; assay type: cell-based
Method: K562 cells were retrovirally transduced with the four constructs individually. Subsequently cell populations were sorted with their respective beads as per manufacturer protocol. Protein-A Dynabeads were previously incubated with clinical grade human-rituximab over-night at 4 C and washed 5× with PBS to remove any unbound rituximab before adding it to the cells. Sorted fractions were collected as well as the flow through for all sorting. Fractions were assessed for positive cells based on eGFP expression by flow cytometery with a blank channel to account for auto fluorescence from dead cells.
The efficiencies of the different tags (GST, RQR8 and His-tag) at purifying lentiviral particles from cellular media, was tested using the approach previously described for flankcedccstreptag (see Example 2), i.e. by sorting K562 cells expressing these tags on their surface. K562 cells were retrovirally transduced with flankedccstreptag, GST, RQR8 and H6 epitopes separately (FIG. 8, Pre-sorted column). Transduced cells represented a minority of the total population based on eGFP expression; therefore cells were not mixed with NT-K562 cells. Populations expressing flankedccstreptag at 10.5%, RQR8 at 9.75%, GST at 22.7% and H6 […] were thereafter sorted with Streptavidin Dynabeads, human rituximab previously incubated with protein-A bead, Glutathione magnetic beads and His-tag Dynabeads respectively.
Collected fractions were assessed for positive cells 12 days-post sorting. […] Moreover, K562 cells expressing GST epitope were successfully purified from pre-sorting population with 91% eGFP positive cells present in the sorted fraction. […] Conversely, K562 expressing H6 sorting was less successful as only 26.1% of cells in the sorted fraction were eGFP positive while 71.1% of cells were eGFP negative. Additionally, 59.2% eGFP positive cells were in the flow-through. The GST and RQR8 tags therefore show the best activity with regard to purifying viral particles from cellular supernatant in the same manner as flankcedccstreptag epitope.

[2] = system: NT-293T cells; assay type: cell-based, human
[3] = K562, respective beads, 12 days post sorting

B1: GST: glutathione S-transferase tag (SEQ ID NO: 6) on CD8 stalk (protein)
chain: MGTSLLCWMALCLLGADHADAMSPILGYWKIKGLVQPTRLLLEYLEEKYEEHLYERDEGDKWRNKKFELGLEFPNLPYYIDGDVKLTQSMAIIRYIADKHNMLGGCPKERAEISMLEGAVLDIRYGVSRIAYSKDFETLKVDFLSKLPEMLKMFEDRLCHKTYLNGDHVTHPDFMLYDALDVVLYMDPMCLDAFPKLVCFKKRIEAIPQIDKYLKSSKYIAWPLQGWQATFGGGDHPPKSDLEVLFQGPLG
modifications: glutathione S-transferase (GST) domain
[1]; [3]
  eGFP positive cells in the flow-through fraction: 10.6%
  eGFP positive cells in the sorted fraction: 91%
[1]; retrovirally transduced K562 before sorting
  eGFP positive cells, pre-sorted population: 22.7%
[2]
  transduction efficiency, neat supernatant: high transduction efficiencies
